Test results published in patent US4843074A.

Experiments:
[1] = test system: Colonic Motility; assay: Inhibition of colonic motility in anesthetized rats (carbachol responses); conditions: anesthetized male rats, carbachol bolus 5 minutes after drug
[2] = test system: carbachol-induced diarrhea; assay: Inhibition of carbachol-induced diarrhea in mice; conditions: male CF1 mice, i.p., carbachol i.p. 30 minutes after drug

For `CCN(CC)CCOC(=O)C1(C2CCCCC2)CCCCC1`, the “Colonic Motility, Anesth. Rat, i.v., IC50” value [1] was 0.33 mg/kg and the “Antag. Carbachol-ind. diarrhea, mice, ip, ED50” value [2] was 0.65 mg/lg.
